Molecular target: m20

Kd: 13.4 nM
Substance: anti BMPR-IA (Fab)

Source: paper PMC2749821
